Earlier results in US20060143718A1, “Transgenic animals for monitoring water quality” (priority 2000, published 2006).

Settings: cited from earlier work

## mercury [Hg]
Fish muscle tissue vs water
  levels in fish muscle tissue compared with surrounding water: more than 40,000 times
fish, in the food chain
  bioconcentration: > 40,000 times
